# Reference: US20160223554A1, “METHODS FOR DIAGNOSIS, PROGNOSIS AND METHODS OF TREATMENT” (priority 2011, published 2016)
# B1: IL-3 (protein, UniProt P08700 20-152, looked up)
# Interleukin-3: APMTQTTPLKTSWVNCSNMIDEIITHLKQPPLPLLDFNNLNGEDQDILMENNLRRPNLEAFNRAVKSLQNASAIESILKNLLPCLPLATAAPTRHPIHIKDGDWNEFRRKLTFYLKTLENAQAQQTTLSLAIF
# What was measured:
# AML blasts [1] = experiment: SCNP phospho-flow signaling nodes in AML PBMC (Example 2, Study No. 1); assay type: cell-based, human; conditions: for Mean Value of CRs: CR patients; for Mean Value of CRs / Mean Value of NRs: Study No. 1; for Mean Value of NRs: NR patients
# Protocol: Frozen cells are thawed in a 37° C. water bath and gently resuspended in the vial and transferred to the 15 mL conical tube. The 15 mL tube is centrifuged at 930 RPM (200×g) for 8 minutes at room temperature. The supernatant is aspirated and the pellet is gently resuspended in 1 mL media A. The cell suspension is filtered through a 70 um cell strainer into a new 15 mL tube. The cell strainer is rinsed with 1 mL media A and another 12 ml of media A into the 15 mL tube. The cells are mixed into an even suspension. A 20 μL aliquot is immediately removed into a 96-well plate containing 180 μL PBS+4% FBS+CD45 Alexa 700+PI to determine cell count and viability post spin. After the determination, the 15 mL tubes are centrifuged at 930 RPM (200×g) for 8 minutes at room temperature. The supernatant is aspirated and the cell pellet is gently resuspended in 4 mL PBS+4 μL Amine Aqua and incubated for 15 min in a 37° C. incubator. 10 mL RPMI+1% FBS is added to the cell suspension and the tube is inverted to mix the cells. The 15 mL tubes are centrifuged at 930 RPM (200×g) for 8 minutes at room temperature. The cells are resuspended in Media A at the desired cell concentration (1.25×10^6/mL). For samples with low numbers of cells (<18.5×10^6), the cells are resuspended in up to 15 mL media. For samples with high numbers of cells (>18.5×10^6), the volume is raised to 10 mL with media A and the desired volume is transferred to a new 15 mL tube, and the cell concentration is adjusted to 1.25×10^6 cells/ml. 1.6 mL of the above cell suspension (concentration at 1.25×10^6 cells/ml) is transferred into wells of a multi-well plate. From this plate, 80 ul is dispensed into each well of a subsequent plate. The plates are covered with a lid (Nunc) and placed in a 37° C. incubator for 2 hours to rest.
# A concentration for each stimulant that is five folds more (5×) than the final concentration is prepared using Media A as diluent. 5× stimuli are arrayed into wells of a standard 96 well v-bottom plate that correspond to the wells on the plate with cells to be stimulated.
# Adding the stimulant: The cell plate(s) are taken out of the incubator and placed in a 37° C. water bath next to the pipette apparatus. The cell plate is taken from the water bath and gently swirled to resuspend any settled cells. With pipettor, the stimulant is dispensed into the cell plate and vortexed at “7” for 5 seconds. The deep well plate is put back into the water bath.
# Adding Fixative: 200 μl of the fixative solution (final concentration at 1.6%) is dispensed into wells and then mixed on the titer plate shaker on high for 5 seconds. The plate is covered with foil sealer and incubated in a 37° C. water bath for 10 minutes. The plate is spun for 6 minutes at 2000 rpm at room temperature. The cells are aspirated using a 96 well plate aspirator (VP Scientific). The plate is vortexed to resuspend cell pellets in the residual volume. The pellet is ensured to be dispersed before the Methanol step (see cell permeabilization) or clumping will occur.
# Cell Permeabilization: Permeability agent, for example methanol, is added slowly and while the plate is vortexing. To do this, the cell plate is placed on titer plate shaker and made sure it is secure. The plate is set to shake using the highest setting. A pipetter is used to add 0.6 mls of 100% methanol to the plate wells. The plate(s) are put on ice until this step has been completed for all plates. Plates are covered with a foil seal using the plate roller to achieve a tight fit. At this stage the plates can be stored at −80° C.
# Cells are thawed if frozen. Cells are pelleted at 2000 rpm 5 minutes. Supernatant is aspirated with vacuum aspirator. Plate is vortexed on a “plate vortex” for 5-10 seconds. Cells are washed with 1 mL FACS buffer. Repeat the spin, aspirate and vortex steps as above. 50 μL of FACS/stain buffer with the desired, previously optimized, antibody cocktail is added to two rows of cells at a time and agitate the plate. […]
# AML blasts [2] = experiment: SCNP signaling and apoptosis nodes in AML BMMC (Example 4, Study No. 2); assay type: cell-based, human
# [3] = Fold metric, Study No. 1, CRp patient included in NR group
# [4] = Fold metric, all patients, Study No. 2
# [5] = Study No.2, patients with De Novo AML
# [6] = Total Phospho metric, Study No. 1, CRp patient included in NR group
# [7] = read-out p-CREB, metric TotalPhospho
# [8] = read-out p-Stat3, metric TotalPhospho
molecule,measurement,setting,value
"CCCCCCCCCCCCCC(=O)O[C@@H]1[C@@H](C)[C@@]2(O)[C@@H](C=C(CO)C[C@]3(O)C(=O)C(C)=C[C@@H]23)[C@@H]2C(C)(C)[C@]12OC(C)=O [PMA, reference compound]","Mean Value of CRs, p-Erk",AML blasts [1]; [3],1.46
B1,"Mean Value of CRs, p-Stat5",AML blasts [2]; [4],1.99
same,"Mean Value of NRs, p-Stat5",AML blasts [2]; [4],0.44
same,"Mean Value of CRs, p-Stat1 TotalPhospho",AML blasts [2]; [5],1.03
same,"Mean Value of CRs, p-Stat3 TotalPhospho",AML blasts [2]; [5],1.46
same,"Mean Value of CRs, p-Stat5 Fold",AML blasts [2]; [5],1.87
same,"Mean Value of NRs, p-Stat1 TotalPhospho",AML blasts [2]; [5],1.71
same,"Mean Value of NRs, p-Stat3 TotalPhospho",AML blasts [2]; [5],2.40
same,"Mean Value of NRs, p-Stat5 Fold",AML blasts [2]; [5],0.39
same,"Mean Value of CRs, p-Stat3",AML blasts [1]; [3],0.15
same,"Mean Value of NRs, p-Stat3",AML blasts [1]; [3],−0.04
same,"Mean Value of CRs, p-CREB",AML blasts [1]; [6],1.51
same,"Mean Value of NRs, p-CREB",AML blasts [1]; [6],2.58
same,Mean Value of CRs,AML blasts [1]; [7],1.64
same,Mean Value of NRs,AML blasts [1]; [7],2.57
same,Mean Value of CRs,"AML blasts [1]; read-out p-Stat1, metric Fold",0.05
same,Mean Value of NRs,"AML blasts [1]; read-out p-Stat1, metric Fold",−0.01
same,Mean Value of CRs,"AML blasts [1]; read-out p-Stat3, metric Fold",0.13
same,Mean Value of NRs,"AML blasts [1]; read-out p-Stat3, metric Fold",−0.05
same,Mean Value of CRs,AML blasts [1]; [8],1.05
same,Mean Value of NRs,AML blasts [1]; [8],1.29
